# Patent US8580517B2, “Biosensor and use thereof to identify therapeutic drug molecules and molecules binding orphan receptors” (priority 2003, dated 2013)
# Protein sequences, listed by entry. Tags and fused reporters are not part of them.
# UniProt P08172, whole entry: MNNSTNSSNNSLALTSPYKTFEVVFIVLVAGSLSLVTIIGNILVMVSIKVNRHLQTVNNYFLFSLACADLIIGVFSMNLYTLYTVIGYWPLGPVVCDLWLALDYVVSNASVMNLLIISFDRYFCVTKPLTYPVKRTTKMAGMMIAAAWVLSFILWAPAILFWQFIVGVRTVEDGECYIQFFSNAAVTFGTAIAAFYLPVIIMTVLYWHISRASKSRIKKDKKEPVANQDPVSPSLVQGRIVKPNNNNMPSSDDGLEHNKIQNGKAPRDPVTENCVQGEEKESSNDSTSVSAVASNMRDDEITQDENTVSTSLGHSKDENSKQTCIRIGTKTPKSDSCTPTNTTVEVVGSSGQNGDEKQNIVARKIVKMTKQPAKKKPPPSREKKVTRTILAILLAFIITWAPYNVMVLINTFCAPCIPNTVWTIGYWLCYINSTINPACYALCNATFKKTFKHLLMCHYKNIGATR
# Molecular target: M2 muscarinic acetylcholine receptor (Homo sapiens, UniProt P08172)
# Experiment: G protein biosensor FRET profile in insect cells (Sf9), baculovirus expression
# Type: cell-based
# Design: expressed in transfected cells; host or cells: Sf9 insect cells, baculovirus infection
# Description: Biosensor and receptor were expressed using the baculovirus system. One representative FRET profile is shown of three tests performed.
compound,measurement,value
C[N+](C)(C)CCOC(N)=O [carbachol],FRET signal intensity on addition of agonist,decrease in FRET signal intensity
